The IC50 is the concentration that inhibits the measured activity by half. A lower IC50 goes with inhibition by little substance.

Protein sequences, listed by entry. Tags and fused reporters are not part of them. Lines headed by an entry give the natural chain unless they say otherwise; changes in a name come on top.
UniProt P08581: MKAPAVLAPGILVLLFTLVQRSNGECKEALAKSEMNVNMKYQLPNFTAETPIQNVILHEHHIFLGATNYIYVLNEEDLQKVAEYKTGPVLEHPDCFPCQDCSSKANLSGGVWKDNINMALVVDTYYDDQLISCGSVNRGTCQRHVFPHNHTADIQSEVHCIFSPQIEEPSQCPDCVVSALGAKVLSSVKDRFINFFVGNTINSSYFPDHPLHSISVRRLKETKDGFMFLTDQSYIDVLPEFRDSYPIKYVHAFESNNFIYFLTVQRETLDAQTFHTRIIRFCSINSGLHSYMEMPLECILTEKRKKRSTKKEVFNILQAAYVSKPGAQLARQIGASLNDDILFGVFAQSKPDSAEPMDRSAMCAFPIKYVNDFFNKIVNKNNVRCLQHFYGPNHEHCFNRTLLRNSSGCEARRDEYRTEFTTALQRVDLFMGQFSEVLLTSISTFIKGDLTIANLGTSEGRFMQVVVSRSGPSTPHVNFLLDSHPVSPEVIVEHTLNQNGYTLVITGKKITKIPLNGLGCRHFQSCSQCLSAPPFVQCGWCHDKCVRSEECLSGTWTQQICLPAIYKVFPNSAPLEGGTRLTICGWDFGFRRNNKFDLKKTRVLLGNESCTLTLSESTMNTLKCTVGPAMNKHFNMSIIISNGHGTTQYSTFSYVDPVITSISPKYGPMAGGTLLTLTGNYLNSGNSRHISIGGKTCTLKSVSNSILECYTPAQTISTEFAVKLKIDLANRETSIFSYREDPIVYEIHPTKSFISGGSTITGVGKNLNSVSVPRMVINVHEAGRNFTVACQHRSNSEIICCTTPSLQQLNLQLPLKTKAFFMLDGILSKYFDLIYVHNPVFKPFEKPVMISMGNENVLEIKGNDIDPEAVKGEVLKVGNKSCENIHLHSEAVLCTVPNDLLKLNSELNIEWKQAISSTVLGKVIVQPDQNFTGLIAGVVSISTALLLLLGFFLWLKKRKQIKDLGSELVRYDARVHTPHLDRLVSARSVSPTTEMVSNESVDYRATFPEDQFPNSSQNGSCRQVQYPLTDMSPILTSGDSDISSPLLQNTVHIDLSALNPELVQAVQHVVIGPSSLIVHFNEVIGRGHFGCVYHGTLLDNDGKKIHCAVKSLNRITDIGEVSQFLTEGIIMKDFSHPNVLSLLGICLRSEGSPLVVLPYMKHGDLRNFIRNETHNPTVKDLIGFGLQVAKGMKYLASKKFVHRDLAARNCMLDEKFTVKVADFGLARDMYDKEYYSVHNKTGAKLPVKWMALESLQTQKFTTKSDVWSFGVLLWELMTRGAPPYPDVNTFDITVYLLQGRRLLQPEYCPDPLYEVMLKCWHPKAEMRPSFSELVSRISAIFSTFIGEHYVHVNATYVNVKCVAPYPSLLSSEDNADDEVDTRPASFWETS

The target of experiment [1] is Hepatocyte growth factor receptor (Homo sapiens, UniProt P08581). The experiment can be described thus: Displacement of fluorescein labeled ATP probe from His/GST-tagged c-Met (unknown origin) incubated for 60 mins by HTRF assay. On the technique in general: TR-FRET usually uses a lanthanide donor and a delayed reading to cut background.
The species named for the next experiment is Homo sapiens. The experiment can be described thus: Selectivity index, ratio of IC50 for displacement of fluorescein labeled ATP probe from His/GST-tagged RIPK1 (unknown origin) incubated for 60 mins by HTRF assay to IC50 for displacement of fluorescein labeled ATP probe from full length His/GST-tagged RIPK3 (unknown origin) incubated for 60 mins by HTRF assay.

`O=C(Nc1ccc(Oc2ccnc3[nH]ccc23)c(F)c1)c1cccn(-c2ccc(F)cc2)c1=O`: the IC50 in experiment [1] worked out at 5.7 nM. The Ratio IC50 in the experiment listed under Homo sapiens is 64.

Values taken from ChEMBL document CHEMBL4342476, “Identification of RIPK3 Type II Inhibitors Using High-Throughput Mechanistic Studies in Hit Triage” (ACS Med Chem Lett, 2020).
